Consider one sequence from publication PMC9877232, “A biocatalytic peptidobiosensing molecular bridge for detecting osteosarcoma marker protein” (Frontiers in Chemistry, 2023).

The test deals with MDM2. The test can be described thus: square wave voltammetry of poly-tyrosine, control detection of MDM2. Also on record: species or system human. The note with it: detecting 10 nM MDM2, 10 mM PBS, pH 7.4. The source says:
Synthetic peptide probes (theirs sequences was shown as Supplementary Figure S1), and a control synthetic peptide with the protein targeting sequence swapped as TSFAEYWNLLSP, were tailor-made as freeze-dried powder, with higher than 95% nominal purity, by Conngbibio Co., Ltd. Poly-tyrosine was purchased from Sigma-Aldrich. Recombinant G-protein subunit alpha and avidin were from Abcam, while recombinant integrin was from the R&D system. Recombinant human murine double minute 2 (hMDM2) (>98%) was purchased from ProSpec-Tany TechnoGene Ltd. The other compounds were all of an analytical caliber. […]
A MicroCal ITC200 System was used to make measurements using isothermal titration calorimetry (ITC) (GE healthcare life sciences). […] Each set of data was adjusted for heats of dilution, which were calculated by titrating past saturation. […] A QM-4/2005 fluorescence spectrometer (Photon Technology International, Inc., Birmingham, NJ) fitted with a xenon lamp was used to measure the fluorescence emission spectra of surfaces. […] For fluorescence measurements, the slides were stored in a water-filled cuvette at a 60-degree angle from the cuvette’s base. […] In 10 mM PBS, pH 7.4, deoxygenated by purging with nitrogen gas, and maintained in this inert atmosphere during the electrochemical studies, square wave voltammograms (SUVs) were recorded. […]

TSFAEYWNLLSP [peptide derived from p53]: the “signal response (poly-tyrosine square wave voltammogram)” value is “almost totally compromised signal response”.
